Assay results: US20130295185A1, “COMPOUNDS AND METHODS FOR INDUCING APOPTOSIS IN CANCER CELLS USING A BH3 ALPHA-HELICAL MIMETIC” (H. Lee Moffitt Cancer Center and Research Institute, Inc., priority 2011, published 2013)

Tests used:
[1] = Plasma pharmacokinetics in A549 xenograft nude mice; conditions: IP, 30 mg/kg, in DMSO, tested form: diammonium salt (as drawn, CO2NH4)
Method: FIG. 9 is an image depicting the plasma pharmacokinetics of the BH3M6 compound at 30 mg/kg from free drug delivered i.p., or micelle formulation delivered i.v. or oral gavage.
An A549 lung cancer xenograft model was used for the plasma and tumor accumulation studies. A549 lung cancer xenografts were grown in nude mice by implanting approximately 10 million cells into the right flank of each mouse, and allowed 3 weeks for the tumors to establish log growth and reach about 300-400 mm^3. The formulation from Example 2 was dissolved in 150 mM NaCl for both intravenous (IV) administration and oral administration. The free drug was dissolved in DMSO for intraperitoneal (IP) administration. Time points for sample collection were 5 minutes, 1 hour and 6 hours post administration. Naive, tumor-bearing mice were used as controls for blank plasma and tumor tissue. Blood was collected by heart puncture, where approximately 500 μL was added to a 1.5 mL collection tube containing EDTA as anticoagulant. Plasma was isolated from blood by centrifugation at 2000 RPM for 5 minutes. The BH3-M6 compound was extracted from plasma by adding 50 μL of each plasma sample to 150 μL ice cold methanol. Samples were vortexed for 10 minutes, centrifuged at 13,000 RPM for 10 minutes, and the methanol supernatant was collected for HPLC analysis to determine plasma pharmacokinetics of the BH3-M6 compound.

caspase-3 and -7 = assay: Caspase-3/-7 activity in A549 cells; conditions: A549, n=3; tested form: diammonium salt (as drawn, CO2NH4)
Method: Release of cytochrome c from isolated mitochondria was measured as described by Takahashi et al. (Takahashi, Y., Karbowski, M., Yamaguchi, H., Kazi, A., Wu, J., Sebti, S. M., Youle, R. J., and Wang, H. G. (2005) Mol Cell Biol 25, 9369-9382) Cell-free caspase-3/-7 activity and the extent of PARP cleavage was determined as described previously. (Kazi, A., Smith, D. M., Zhong, Q., and Dou, Q. P. (2002) Mol Pharmacol 62, 765-771) MTT (3-(4,5-dimethylthiazol-2-yl)-2,5-diphenyltetrazolium bromide) and TUNEL assays were performed according to Kazi et al., both of which are incorporated herein by reference. (Kazi, A., Lawrence, H., Guida, W. C., McLaughlin, M. L., Springett, G. M., Berndt, N., Yip, R. M. L., and Sebti, S. M. (2009) Cell Cycle 8, 1940-1951)
In addition, BH3-M6 induced apoptosis as measured by DAPI staining (FIG. 5B) and the appearance of an 85 kDa PARP fragment in a concentration-dependent manner (FIG. 5C). Furthermore, treatment of A549 cells with BH3-M6 induced activation of caspase-3 and -7 by about 2.7±0.1-fold (n=3) compared to controls (data not shown) and it inhibited cell viability as measured by MTT assay in a dose-dependent manner (FIG. 5D).

[2] = tested on: Mitochondria from A549 cells; assay: Cytochrome c release from isolated A549 mitochondria; conditions: 50 μM, 60 min, 37° C.; tested form: diammonium salt (as drawn, CO2NH4)
Method: FIG. 5 is a series of images illustrating BH3-M6 induces apoptosis in a caspase-dependent manner. (A) BH3-M6 releases cytochrome c from mitochondria. Mitochondria from A549 cells were incubated at 37° C. with 0, 50 μM BH3-M6 or TPC for 60 min. Cytochrome c release was determined as described in Methods. B-D A549 cells were treated with the indicated BH3-M6 concentrations for up to 72 h and then processed for various assays as described in EXPERIMENTAL PROCEDURES. (B) BH3-M6 induces apoptosis after 48 h of exposure to BH3-M6, as shown by phase images of cells (left panel) or DAPI nuclear staining (right panel). The arrows point towards cells in the process of rounding. The images from phase and DAPI are from different experiments. […] (D) BH3-M6 decreases the viability of A549 cells in a dose-dependent manner as measured by MTT assay after 72 h treatment. […] Caspase-3/-7 activity was determined as described in EXPERIMENTAL PROCEDURES. […] Middle panel, PARP cleavage was measured by Western blotting. Lower panel, extent of apoptosis was measured by TUNEL assay.
Release of cytochrome c from isolated mitochondria was measured as described by Takahashi et al. (Takahashi, Y., Karbowski, M., Yamaguchi, H., Kazi, A., Wu, J., Sebti, S. M., Youle, R. J., and Wang, H. G. (2005) Mol Cell Biol 25, 9369-9382) Cell-free caspase-3/-7 activity and the extent of PARP cleavage was determined as described previously. […]

AUC [1]: 28500 ng·h/mL
CMax [1]: 10.1 µg
TMax [1]: 5 min
T½ [1]: 3.7 h
SMILES: CC(C)Cc1cc(-c2ccc(-c3ccc(CCC(=O)O)cc3CC(C)C)cc2Cc2ccccc2)ccc1OCC(=O)O
activation of caspase-3 and -7 compared to controls (caspase-3 and -7): about 2.7±0.1 fold
release of cytochrome c from isolated mitochondria [2]: triggered the release
